Assay results taken from patent US20250041294A1, “Synergistic compositions for use in the treatment of cancer” (Sartar Therapeutics Oy, priority 2021, published 2025).

Legend:
Assay type in all cases: cell-based
[1] = tested on: GIST882, GOT3 and SA4 cell lines; test: High throughput drug sensitivity and resistance test, average over cell lines (BAY2666605 combination)
GOT3 cell line = test: Drug combination testing with concentration matrices, SynergyFinder 2.0; details: combination with anagrelide, seven-concentration matrices
GIST882 cell line = test: as above; details: combination with anagrelide, seven-concentration matrices

Compound	synergy in high-throughput screening (in words) [1]	Average DSS (aDSS) ([1]; BAY2666605 combination, average of GIST882, SA4 and GOT3, aDSS higher than 3.0 = synergy)	Average ZIP synergy score (GOT3 cell line)	Average ZIP synergy score (GIST882 cell line)
CC(C)C[C@H](NC(=O)[C@H](Cc1ccccc1)NC(=O)c1cnccn1)B(O)O [Bortezomib, bortezomib]	synergistic	–	–	–
CO[C@H]1C[C@@H]2CC[C@@H](C)[C@@](O)(O2)C(=O)C(=O)N2CCCC[C@H]2C(=O)O[C@H]([C@H](C)C[C@@H]2CC[C@@H](OP(C)(C)=O)[C@H](OC)C2)CC(=O)[C@H](C)/C=C(\C)[C@@H](O)[C@@H](OC)C(=O)[C@H](C)C[C@H](C)/C=C/C=C/C=C/1C [Ridaforolimus, ridaforolimus]	–	4.0	1.8	3.9
